What was measured:
[1] = biological target: T1, EphA2 ligand binding domain (EphA2-LBD), recombinant (UniProt P29317 27-200, limits assumed); test: ITC
T1 construct: also called EphA2 protein; isolated EphA2-LBD

Chains of the proteins cited; added tags and fusions are not shown. Residues count along the entry.
UniProt P29317, 27-200 limits assumed: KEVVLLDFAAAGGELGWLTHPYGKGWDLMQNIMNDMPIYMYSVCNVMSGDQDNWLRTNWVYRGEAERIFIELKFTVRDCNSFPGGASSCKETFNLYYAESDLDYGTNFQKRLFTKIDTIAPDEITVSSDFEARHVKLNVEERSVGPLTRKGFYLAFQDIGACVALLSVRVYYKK

[2] = biological target: T1, EphA2 ligand binding domain …; test: DELFIA displacement (assay not given); competitor: immobilised biotinylated peptide m48

- Kd [1]: 8.6 nM
- IC50 [2]: 22.7 nM
B1: 152B12 (35) (peptide)
peptide: YSAXPDSXPFRP
modifications: N-terminal PiperazineAcAcid cap; X4 = 2Me-Bip (4-(2-methylphenyl)-L-phenylalanine); X8 = Chg; C-terminal CONH2

— patent US20260078146A1, “EPHA2 TARGETING AGENTS AND USES THEREOF” (The Regents of the University of California, priority 2022, published 2026)
